For eight compounds, inhibition and Activity results are on record in ChEMBL document CHEMBL6083281, “Development of a Fluorescence Probe for High-Throughput Screening of Allosteric Inhibitors Targeting TRAP1” (J Med Chem, 2024).

Numbering of substitutions follows the chain as printed. The source made the active and inactive calls. The rule behind the calls is not given here.

Assay [1] deals with T1, Heat shock protein 75 kDa, mitochondrial (Homo sapiens) (UniProt Q12931).
T1 sequence (whole entry): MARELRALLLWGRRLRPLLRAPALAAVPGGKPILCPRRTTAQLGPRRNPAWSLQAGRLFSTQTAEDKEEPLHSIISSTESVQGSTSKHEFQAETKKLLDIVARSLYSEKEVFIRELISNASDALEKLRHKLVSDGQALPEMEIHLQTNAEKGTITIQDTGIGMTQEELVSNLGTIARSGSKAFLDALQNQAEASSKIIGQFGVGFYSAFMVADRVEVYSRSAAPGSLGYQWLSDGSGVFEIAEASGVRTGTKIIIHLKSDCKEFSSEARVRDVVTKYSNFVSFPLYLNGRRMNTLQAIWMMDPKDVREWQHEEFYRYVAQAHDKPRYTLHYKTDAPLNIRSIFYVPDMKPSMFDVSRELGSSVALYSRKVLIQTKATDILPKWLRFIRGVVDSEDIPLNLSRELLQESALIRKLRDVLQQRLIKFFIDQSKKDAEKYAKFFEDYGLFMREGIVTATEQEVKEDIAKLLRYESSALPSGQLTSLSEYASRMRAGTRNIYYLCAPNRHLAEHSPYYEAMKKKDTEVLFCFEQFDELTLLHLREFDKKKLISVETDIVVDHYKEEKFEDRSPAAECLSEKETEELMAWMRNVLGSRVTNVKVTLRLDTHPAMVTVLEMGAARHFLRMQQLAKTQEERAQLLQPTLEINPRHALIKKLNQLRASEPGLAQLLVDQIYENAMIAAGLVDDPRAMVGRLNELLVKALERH
In words: Inhibition of TRAP1 in human HeLa cells assessed as increase in SDHB degradation at 2 uM incubated for 12 hrs by Western blot analysis. It counts as cell-based.

In assay [2] the target is T1, Heat shock protein 75 kDa, mitochondrial (Homo sapiens). Briefly: Inhibition of TRAP1 in human HeLa cells assessed as increase in SIRT3 degradation at 2 uM incubated for 12 hrs by Western blot analysis. It counts as cell-based. A general note: In western blotting, separated proteins are transferred to a membrane and probed.
Assay [3] has the same target. In words: Inhibition of TRAP1 in human HeLa cells assessed as upregulation of phospho-AMPK expression at 2 uM incubated for 12 hrs by Western blot analysis. It counts as cell-based.
Assay [4] shares this target. In words: Inhibition of TRAP1 in human HeLa cells assessed as upregulation of phospho-CHOP expression at 2 uM incubated for 12 hrs by Western blot analysis. It counts as cell-based.
The target is the same in assay [5]. In words: Inhibition of TRAP1 in human 22Rv1 cells assessed as increase in SDHB degradation at 2 uM incubated for 12 hrs by Western blot analysis. It counts as cell-based.
Assay [6] shares this target. Briefly: Inhibition of TRAP1 in human 22Rv1 cells assessed as increase in SIRT3 degradation at 2 uM incubated for 12 hrs by Western blot analysis. It counts as cell-based.
Assay [7] shares this target. In words: Inhibition of TRAP1 in human 22Rv1 cells assessed as upregulation of phospho-AMPK expression at 2 uM incubated for 12 hrs by Western blot analysis. It counts as cell-based.
Assay [8] shares this target. In words: Inhibition of TRAP1 in human 22Rv1 cells assessed as upregulation of phospho-CHOP expression at 2 uM incubated for 12 hrs by Western blot analysis. It counts as cell-based.
In assay [9] the test system is HeLa. Briefly: Induction of cell death in human HeLa cells assessed as increase in caspase-3 activation at 2 uM incubated for 12 hrs by Western blot analysis. It counts as functional, cell-based.
The subject of assay [10] is CWR22R. Briefly: Induction of cell death in human 22Rv1 cells assessed as increase in caspase-3 activation at 2 uM incubated for 12 hrs by Western blot analysis. It counts as functional, cell-based.
Assay [11] deals with HeLa. In words: Effect on p53 protein level in human HeLa cells at 2 uM incubated for 12 hrs by Western blot analysis. It counts as functional, cell-based.
Assay [12] relates to HeLa. In words: Effect on PCNA protein level in human HeLa cells at 2 uM incubated for 12 hrs by Western blot analysis. It counts as functional, cell-based.
For assay [13], the system named is CWR22R. Briefly: Effect on p53 protein level in human 22Rv1 cells at 2 uM incubated for 12 hrs by Western blot analysis. It counts as functional, cell-based.
The test system of assay [14] is CWR22R. Briefly: Effect on PCNA protein level in human 22Rv1 cells at 2 uM incubated for 12 hrs by Western blot analysis. It counts as functional, cell-based.
Assay [15] relates to Mitochondrial membrane. In words: Induction of mitochondrial membrane depolarization in human HeLa cells at 2 uM incubated for 12 hrs by TMRM staining based flow cytometric analysis. It counts as cell membranes.
Assay [16] has as its system Mitochondrial membrane. Briefly: Induction of mitochondrial membrane depolarization in human 22Rv1 cells at 2 uM incubated for 12 hrs by TMRM staining based flow cytometric analysis. It counts as cell membranes. On the technique in general: Flow cytometry measures light scatter and fluorescence of single cells or particles in a stream.
The test system of assay [17] is HeLa. In words: Induction of ROS production in human HeLa cells at 2 uM incubated for 12 hrs by Mito-SOX staining based flow cytometric analysis. It counts as functional, cell-based.
Assay [18] relates to CWR22R. In words: Induction of ROS production in human 22Rv1 cells at 2 uM incubated for 12 hrs by Mito-SOX staining based flow cytometric analysis. It counts as functional, cell-based.
The target in assay [19] is T1, Heat shock protein 75 kDa, mitochondrial (Homo sapiens). Briefly: Binding affinity to GST-tagged TRAP1 (unknown origin) transfected in human 22Rv1 cell mitochondria at 10 to 50 uM incubated overnight by pull-down assay based Western blotting. The note with it: dose 10-50 µM.
Assay [20] has the same target. Briefly: Inhibition of TRAP1 (unknown origin)-mediated SIRT3 activation assessed as reduction in SIRT3 deacetylase activity at 2 to 10 uM incubated for 30 mins by fluorescence based analysis. The settings on record: dose 2-10 µM.
For assay [21] the target is unchanged. Briefly: Binding affinity to N-terminal 6Hits-tagged/TEV-fused human wildtype TRAP1 extracted from Escherichia coli BL21 (DE3) cells at 100 nM incubated for 2 hrs by fluorescence polarization assay. For orientation: Polarisation of emitted light reports the rotation of a fluorescent probe.
Assay [22] has as its system T2, Heat shock protein 75 kDa, mitochondrial (Homo sapiens), Q12931 [F353A/F531A].
T2 sequence (whole entry): T1 sequence (whole entry) with F353A, F531A
Briefly: Binding affinity to recombinant TRAP1 F353A/F531A mutant (unknown origin) at 5 uM incubated for 2 hrs by fluorescence based microplate reader.

The target in assay [23] is T1, Heat shock protein 75 kDa, mitochondrial (Homo sapiens). In words: Binding affinity to recombinant TRAP1 at client binding site (unknown origin) at 5 uM incubated for 2 hrs in presence of MitoQ by fluorescence based direct binding assay.

For the compound `O=C(CCCCCCCCCC[P+](c1ccccc1)(c1ccccc1)c1ccccc1)Nc1nccs1`, the inhibition result in assay [1], in [2], in [3], in [4], in [5] and in [6] was “Active” in each case. The inhibition entry in [7] and in assay [8] was “Active” each time. For the same compound, the outcome with HeLa [9] and in the assay with CWR22R [10] was Active. Moreover, the outcome in the assay on HeLa [11], in the assay with HeLa [12], in the assay with CWR22R [13] and in the assay with CWR22R [14] was inactive.

As for `CN(C)CCOc1ccc(/C(=C(/CCCCCCCCCC[P+](c2ccccc2)(c2ccccc2)c2ccccc2)c2ccccc2)c2ccccc2)cc1`, the inhibition entry in [1], in [2], in [3], in [4], in assay [5] and in assay [6] was “Active” in each case. Further, the inhibition entry in assay [7] and in [8] was “Active” in each case. For the same compound, the outcome in the assay on HeLa [9], in the assay with CWR22R [10], with Mitochondrial membrane [15], in the assay with Mitochondrial membrane [16], in the assay with HeLa [17] and in the assay with CWR22R [18] was Active. The result with HeLa [11], in the assay with HeLa [12], with CWR22R [13] and in the assay with CWR22R [14] was inactive. The Activity entry in assay [19] is listed as “Active; Compound Effectively Competes With Trap1 Clients Such As Sirt3 And Sdhb Compared To Mitoq”. The inhibition result in assay [20] is given as “Active; Compared To Mitoq”.

Consider `C[P+](CCCCCCNC(=O)c1cc2cc3c4c(c2oc1=O)CCCN4CCC3)(c1ccccc1)c1ccccc1`, for which the result in [21] was inactive.

With `CCN(CC)c1ccc2c(-c3ccccc3C(=O)N(C)CCCCCCCC[P+](c3ccccc3)(c3ccccc3)c3ccccc3)c3ccc(=[N+](CC)CC)cc-3oc2c1`, the result in [22] and in [23] was inactive.

Regarding `CC(C)(C)[Si](C)(C)O[C@H]1CC[C@]2(C)[C@H]1[C@H]2CCC[P+](c1ccccc1)(c1ccccc1)c1ccccc1`, the inhibition entry in [1], in assay [2], in assay [3], in [4], in assay [5] and in assay [6] was “Active” throughout. Moreover, the inhibition entry in assay [7] and in assay [8] was “Active” throughout. Also, the outcome in the assay on HeLa [9] and with CWR22R [10] was Active. In addition, the result in the assay with HeLa [11], in the assay with HeLa [12], in the assay on CWR22R [13] and in the assay on CWR22R [14] was inactive.

On to `CN(CCCCCC[P+](c1ccccc1)(c1ccccc1)c1ccccc1)C(=O)c1ccccc1C1=c2cc3c4c(c2Oc2c1cc1c5c2CCCN5CCC1)CCC[N+]=4CCC3`, for which the outcome in assay [22] and in [23] was inactive.

Regarding `C[P+](C)(CCCCCCNC(=O)c1cc2cc3c4c(c2oc1=O)CCCN4CCC3)c1ccccc1`, in assay [21], the result was inactive.

For `CN(CCCCCCCC[P+](c1ccccc1)(c1ccccc1)c1ccccc1)C(=O)c1ccccc1C1=c2cc3c4c(c2Oc2c1cc1c5c2CCCN5CCC1)CCC[N+]=4CCC3`, the result in assay [22] and in assay [23] was inactive. Moreover, the inhibition entry in [1], in [2], in assay [3], in assay [4], in assay [5] and in assay [6] was “Active” in each case. Besides, the inhibition entry in assay [7] and in assay [8] was “Active” each time.
